Where two headings read alike, the source gives them in different places.

The results in this text go back to patent US6541486B1, “Bis-benzimidazole compounds and analogs thereof for inhibiting cell death” (Elan Pharma International Ltd., priority 1999, dated 2003).

In this assay the test system is Oxygen/Glucose Deprived RGCs (retinal ganglion cells). The experiment in a line: Protection of oxygen/glucose deprived (OGD) retinal ganglion cells, EC50. As to conditions: read-out: EC50 (concentration at which 50% of cells are protected from cell death relative to control).

On to `NC(c1ncc[nH]1)c1ncc[nH]1` [SNX 949, 2,2′-(aminomethylene)bisimidazole], for which, under “Rattus norvegicus”, the EC50 amounted to 0.19 nM.

Turning to `N#CCc1nc2ccccc2[nH]1` [SNX 914, 2-(cyanomethyl)benzimidazole], the EC50 (Rattus norvegicus) is 18 nM.

For `O=[N+]([O-])Cc1nc2ccccc2[nH]1` [SNX 953, 2-(nitromethyl)benzimidazole], the EC50 (Rattus norvegicus) worked out at 0.4 nM.

Turning to `c1ccc2[nH]c(CC3=NCCN3)nc2c1` [SNX 978, 2-(4,5-dihydroimidazol-2-yl)methyl benzimidazole], the EC50 (Rattus norvegicus) worked out at 0.03 nM.

In the case of `Cc1nc(-c2nc(C)c(C)[nH]2)[nH]c1C` [SNX 939, 2,2′-bis(4,5-dimethylimidazole)], the EC50 (OGD RGCs, compound from 30 min prior to OGD, during OGD and 24 and 48 h after) came out at 3.8 nM.

Take `O=C(c1ncc[nH]1)c1ncc[nH]1` [SNX 951, di(imidazol-2-yl)methanone]: the EC50 (Rattus norvegicus) came to 0.21 nM.
